We go through one compound from patent US7001921B1, “Cell adhesion inhibitors” (Biogen Idec MA Inc., priority 1995, dated 2006).

By UniProt entry, the sequences of proteins in these tests, tags left out. Residues count along the entry.
UniProt P05556, 21-798 limits assumed: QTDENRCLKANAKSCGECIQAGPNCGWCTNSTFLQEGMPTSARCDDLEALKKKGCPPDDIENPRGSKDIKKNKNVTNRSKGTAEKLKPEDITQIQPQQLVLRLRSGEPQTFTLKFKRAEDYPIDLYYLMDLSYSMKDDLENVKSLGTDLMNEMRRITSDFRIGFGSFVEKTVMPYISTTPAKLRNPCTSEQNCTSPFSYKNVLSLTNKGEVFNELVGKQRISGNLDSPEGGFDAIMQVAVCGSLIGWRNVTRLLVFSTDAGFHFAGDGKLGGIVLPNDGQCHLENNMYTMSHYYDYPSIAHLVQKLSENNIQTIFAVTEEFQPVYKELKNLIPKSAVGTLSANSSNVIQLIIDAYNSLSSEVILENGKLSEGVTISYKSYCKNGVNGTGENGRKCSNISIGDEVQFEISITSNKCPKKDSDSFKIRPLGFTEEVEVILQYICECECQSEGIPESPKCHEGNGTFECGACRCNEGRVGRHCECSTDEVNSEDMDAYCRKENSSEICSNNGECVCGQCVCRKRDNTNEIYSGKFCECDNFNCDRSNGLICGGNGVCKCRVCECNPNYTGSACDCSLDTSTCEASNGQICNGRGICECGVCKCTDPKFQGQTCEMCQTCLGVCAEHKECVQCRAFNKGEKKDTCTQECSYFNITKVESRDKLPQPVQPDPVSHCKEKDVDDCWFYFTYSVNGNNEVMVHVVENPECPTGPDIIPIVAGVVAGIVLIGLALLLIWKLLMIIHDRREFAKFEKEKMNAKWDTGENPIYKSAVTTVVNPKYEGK
UniProt P13612, 34-1032 limits assumed: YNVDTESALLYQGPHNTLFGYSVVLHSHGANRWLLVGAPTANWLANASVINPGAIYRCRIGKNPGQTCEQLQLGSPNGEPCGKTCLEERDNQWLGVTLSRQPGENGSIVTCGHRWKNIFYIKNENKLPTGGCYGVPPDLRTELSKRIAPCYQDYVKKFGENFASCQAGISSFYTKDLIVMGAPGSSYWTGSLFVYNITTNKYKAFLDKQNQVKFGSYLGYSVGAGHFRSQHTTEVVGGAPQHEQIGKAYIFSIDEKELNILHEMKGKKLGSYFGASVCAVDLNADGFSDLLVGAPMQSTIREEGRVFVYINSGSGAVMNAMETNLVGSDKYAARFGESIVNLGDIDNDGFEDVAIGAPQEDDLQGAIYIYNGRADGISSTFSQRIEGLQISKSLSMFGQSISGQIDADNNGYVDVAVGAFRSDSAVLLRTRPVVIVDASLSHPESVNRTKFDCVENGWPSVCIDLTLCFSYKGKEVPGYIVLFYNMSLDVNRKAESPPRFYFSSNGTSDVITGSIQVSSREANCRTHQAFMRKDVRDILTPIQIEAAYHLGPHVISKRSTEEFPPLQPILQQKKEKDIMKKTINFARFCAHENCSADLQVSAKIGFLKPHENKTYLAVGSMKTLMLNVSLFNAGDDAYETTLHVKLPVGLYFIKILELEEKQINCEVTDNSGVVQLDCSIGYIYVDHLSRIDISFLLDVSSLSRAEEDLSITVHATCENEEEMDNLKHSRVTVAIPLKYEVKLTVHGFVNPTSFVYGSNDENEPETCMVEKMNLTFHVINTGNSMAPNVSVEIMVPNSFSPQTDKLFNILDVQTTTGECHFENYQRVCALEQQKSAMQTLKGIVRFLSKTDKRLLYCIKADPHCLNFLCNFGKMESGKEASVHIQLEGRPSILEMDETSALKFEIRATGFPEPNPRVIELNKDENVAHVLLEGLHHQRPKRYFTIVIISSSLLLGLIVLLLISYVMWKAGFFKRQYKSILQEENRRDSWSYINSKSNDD

In this assay the target is VLA4 (Homo sapiens, UniProt P05556+P13612). Nature of the assay: Inhibition of VLA4-dependent adhesion to BSA-CS1 (labelled Ramos cells). To be noted: binding of BCECF-AM labelled Ramos cells to CS1 peptide-coated wells, 2 mM MnCl2, 30 minutes at room temperature; IC50 range. The text has this: For example, the cell adhesion inhibitory activity of these compounds may be measured by determining the concentration of inhibitor required to block the binding of VLA-4-expressing cells to fibronectin- or CS1-coated plates. In this assay microtiter wells are coated with either fibronectin (containing the CS-1 sequence) or CS-1. If CS-1 is used, it must be conjugated to a carrier protein, such as bovine serum albumin, in order to bind to the wells. Once the wells are coated, varying concentrations of the test compound are then added together with appropriately labelled, VLA-4-expressing cells. Alternatively, the test compound may be added first and allowed to incubate with the coated wells prior to the addition of the cells. The cells are allowed to incubate in the wells for at least 30 minutes. Following incubation, the wells are emptied and washed. Inhibition of binding is measured by quantitating the fluorescence or radioactivity bound to the plate for each of the various concentrations of test compound, as well as for controls containing no test compound.
VLA-4-expressing cells that may be utilized in this assay include Ramos cells, Jurkat cells, A375 melanoma cells, as well as human peripheral blood lymophocytes (PBLs). […]
We dissolved BSA-SMCC (Pierce Chemical, Rockford, Ill.; Catalog # 77115) in H2O at a concentration of 10 mg/mL. […] Samples were analyzed for cross-linking by SDS-PAGE. […]

Molecules are shown by their SMILES.

As to `CC(C)CC(NC(=O)C(c1ccccc1)c1ccccc1)C(=O)NC(CC(=O)O)c1ccccc1` (stereo not shown), the 50% inhibitory concentration (IC50) is greater than 10 µM.
